Results on one substance are retold here after patent publication US20090023646A1, “GHRH analogues” (Centre Hospitalier de L'Universite de Montreal (CHUM), priority 2002, published 2009).

Data set [1] has as its target T1, human GHRH receptor (Homo sapiens, UniProt Q02643).
T1 construct: expressed in transfected cells; host or cells: BHK (baby hamster kidney) 570 cells
T1 sequence (Q02643 23-423): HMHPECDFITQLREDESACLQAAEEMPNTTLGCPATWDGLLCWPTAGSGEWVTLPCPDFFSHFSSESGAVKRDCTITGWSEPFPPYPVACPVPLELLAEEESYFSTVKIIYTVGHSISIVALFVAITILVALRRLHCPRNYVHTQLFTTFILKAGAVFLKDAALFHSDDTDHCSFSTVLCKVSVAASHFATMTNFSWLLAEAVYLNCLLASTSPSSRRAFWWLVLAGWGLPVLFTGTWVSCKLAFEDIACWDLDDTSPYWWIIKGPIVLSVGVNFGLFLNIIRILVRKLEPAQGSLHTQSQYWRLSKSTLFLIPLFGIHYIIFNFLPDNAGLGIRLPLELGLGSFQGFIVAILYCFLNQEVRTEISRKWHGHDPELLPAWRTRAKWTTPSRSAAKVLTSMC
Kind of data set: Competitive 125I-GHRH binding assay in BHK cell membrane preparations expressing the human GHRH receptor. Particulars: Table 7; mean±SEM of 3 experiments (analogue) or 2 experiments (hGHRH(1-44)NH2) in triplicate. The procedure: ^125I-GHRH binding assay was performed as previously described (Boulanger L, et al. (1999) Neuroendocrinology 70: 117-127), using [^125I-Tyr^10]hGHRH(1-44)NH2 as radioligand. Competition experiments were done in BHK (baby hamster kidney) 570 cell membrane preparations (25 μg of protein/assay tube) with increasing concentrations (0-1000 nM) of human(h)GHRH(1-29)NH2, hGHRH(1-44)NH2 or GHRH analogues, in a total volume of 300 μl 50 mM Tris-acetate buffer (pH 7.4), containing 5 mM MgCl2, 5 mM EDTA and 0.42% BSA. Non specific binding was determined in presence of 1 μM hGHRH(1-29)NH2. Incubation was carried out at equilibrium (23° C., 60 min) and stopped by centrifugation (12,000 g, 5 min, at 4° C.). The radioactivity content in pellets was determined by gamma counting. The affinity of hGHRH(1-29) NH2 was tested in each experiment to assess the validity of the assay and determine the relative affinity of the analogues. The Ligand computerized program was used to analyze competition curves of GHRH analogues reported in Tables 2 and 3 and to determine their IC50 (Gaudreau P. et al. (1992) J Med Chem, 35: 1864-1869).
Values represent the mean±SEM of 3 experiments performed in triplicate for the analogues and the mean±SEM of 2 experiments performed in triplicate for hGHRH(1-44) NH2. […]

Data set [2] is described as follows: In vitro proteolysis assay in human plasma.

The IC50 is the point on the concentration scale where inhibition reaches its midpoint. Low readings indicate greater potency, high ones weaker potency. Regarding hGHRH(1-44)NH2, in data set [1], the IC50 was 5.2 ± 3.4 pM. Also, the figures for the Mean residual amount in data set [2] (incubation time 0 min), in data set [2] (incubation time 180 min) and in data set [2] (incubation time 420 min) were 100%, 31% and 3%, respectively.
